This test has as its target ITK (Homo sapiens (Human), UniProt Q08881). The experiment in a line: ITK kinase assay (radiometric filter binding, 10 μM ATP). Format: biochemical. The conditions noted are these: 10-dose IC50 mode, read-out: ITK kinase inhibition. The method, then: All additions were done on ice, followed by the addition of ATP mix. Wells were uniformly mixed using an Eppendorff plate shaker and incubated at 30° C. for 20 min, and stopped by the addition of 5 μL of 3% phosphoric acid. Volume was increased to 100 μL by adding 0.8% phosphoric acid which was then transferred to PC filter mats (Millipore), pre-equilibrated with 70% ethanol and water. Plates were washed thrice with 100 μL 0.8% phosphoric acid and dried for an hour at 60° C. 100 μL scintillation fluid was added into each well and reading taken in Perkin Elmer TOPCOUNT beta counter.
The reactions were carried out at 10 μM ATP for ITK, JAK3 and other TEC and Janus family of kinase.

Chains of the proteins cited; added tags and fusions are not shown. Lines headed by an entry give the natural chain unless they say otherwise; changes in a name come on top.
UniProt Q08881: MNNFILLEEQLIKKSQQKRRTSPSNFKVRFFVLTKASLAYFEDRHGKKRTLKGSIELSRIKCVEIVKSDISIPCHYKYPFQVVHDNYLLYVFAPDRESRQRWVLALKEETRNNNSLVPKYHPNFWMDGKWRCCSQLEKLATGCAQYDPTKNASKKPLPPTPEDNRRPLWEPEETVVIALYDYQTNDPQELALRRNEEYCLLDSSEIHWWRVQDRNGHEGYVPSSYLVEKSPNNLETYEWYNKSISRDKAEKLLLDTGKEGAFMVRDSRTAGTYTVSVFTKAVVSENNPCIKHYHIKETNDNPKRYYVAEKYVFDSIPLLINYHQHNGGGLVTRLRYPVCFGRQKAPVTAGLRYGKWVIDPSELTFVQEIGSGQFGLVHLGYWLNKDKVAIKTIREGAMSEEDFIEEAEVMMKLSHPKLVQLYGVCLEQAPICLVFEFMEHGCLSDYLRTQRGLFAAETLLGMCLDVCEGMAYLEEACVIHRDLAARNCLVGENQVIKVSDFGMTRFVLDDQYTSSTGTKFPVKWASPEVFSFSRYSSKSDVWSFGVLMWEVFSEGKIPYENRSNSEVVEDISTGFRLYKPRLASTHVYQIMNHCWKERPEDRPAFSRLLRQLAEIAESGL

For “(E)-N-(2-chloro-5-(3-methyl-1H- pyrrolo[2,3-b]pyridin-5- yl)phenyl)pent-1-enamide [Example 14]”, the IC50 is over 0.1 µM.

Values taken from patent US9206188B2, “Substituted pyrrolo[2,3-b]pyridines as ITK and JAK inhibitors” (Arrien Pharmaceuticals LLC, priority 2013, dated 2015).
